Laboratory results published in patent publication US20040109845A1, “Method for inhibiting articular cartilage matrix calcification” (priority 2001, published 2004).
“Also recorded” adds a separate entry of the source.

What was measured:
[1] = tested on: NO release by meniscal cells; assay: NO release by cultured meniscal cells (Greiss reaction); type: cell-based, human; conditions: 72 hrs, IL-1 or TNFα 10 ng/ml, NMMA 10 μM or A20 transfection
Experimental: NO release by 3×10^5 meniscal cells, which were plated and stimulated with TNFα (10 ng/ml) or IL-1 (10 ng/ml), with or without 10 μM NMMA (FIG. 8A), for 72 hrs was studied. Conditioned media were collected and 50 μl aliquots analyzed for NO release using the Greiss Reaction, with results expressed as μmoles released per μg DNA. For the studies in FIG. 8B, the meniscal cells were transfected with A20 or empty plasmid (where indicated), using the procedure described in the Methods, which included use of Lipofectamine Plus and a prior 3 minute incubation with 0.00015% digitonin to optimize the transfection. After 72 hrs of incubation with TNFα or IL-1, the conditioned media were collected from the cultured, transfected cells and analyzed in triplicate for NO release, as above. Data pooled from 4 normal donors studied in triplicate for FIGS. 8A and 8B. *p<0.05.
PPi was determined by differential adsorption on activated charcoal of UDP-D-[6-^3H] glucose (Amersham, Chicago, Ill.) from the reaction product 6-phospho [6-^3H] gluconate (28). Units of NTPPPH and AP were designated as micromoles of substrate hydrolyzed per hour (per μg DNA in each sample) (28). NO release by cultured meniscal cells was measured using the Greiss reaction (33). Concentrations or specific activities of PPi, NTPPPH, and AP were equalized for cellular DNA concentrations in each well.

[2] = tested on: TGase activity (tTGase and Factor XIIIa) in meniscal cells; assay: TGase activity in cultured knee meniscal cells (BP incorporation into N,N-dimethylcasein); type: cell-based, human; conditions: 72 hrs
Experimental: Meniscal cells were maintained in DMEM high glucose and supplemented with 10% FCS, 1% L-glutamine, 100 units/ml Penicillin and 50 μg/ml Streptomycin (Omega Scientific, Tarzana, Calif.) and cultured at 37° C. with 5% CO2. In monolayer cell culture studies involving stimulation by TGFE[…] or IL-1, the cells were placed in DMEM high glucose containing 1% FCS, 1% L-glutamine, 100 units/ml Penicillin and 50 μg/ml Streptomycin. In all other studies, the cells were cultured in complete medium (as described above). Only primary or first passage meniscal cells were studied. Type II collagen and aggrecan expression were confirmed in each meniscal cell preparation using RT-PCR, as previously described, and employing G3PDH as a control (28).
TGase activity was measured by modifications to a previously described method (35). Specifically, we coated 96 well ImmunoModule plates (Nunc, Rochester, N.Y.) with 200 μl of 20 mg/ml N,N-dimethylcasein for 1 hr at 23° C. […] Readings at OD410 were taken over 15 minutes. […] TGase activity was designated as the amount of BP incorporated into casein (per μg cellular DNA, determined chromogenically following precipitation in perchlorate (28), or, where indicated, per μg protein, determined as previously described (28)). […]

## A20: zinc finger protein A20, expressed by transfection of full length human A20 cDNA in pcDNA4/HisMax
[1]
  Effect on IL-1 and TNFα-induced NO release: attenuated IL-1 and TNFα-induced NO release; also recorded: suppresses IL-1 and TNFα-induced NO release
[2]; A20-transfected meniscal cells, Sin-1 10 μM, Noc-12 25 μM
  Effect on TGase activity induced by Noc-12 or Sin-1: did not inhibit TGase activity
[2]; meniscal cells, IL-1 or TNFα 10 ng/ml, NMMA 10 μM or A20 transfection
  Effect on IL-1 and TNFα-induced TGase activity: attenuated LL-1 and TNFα-induced TGase activity; also recorded: suppresses the ability of IL-1 and TNFα to induce TGase activity
